{"source": "paper PMC12113730", "about": "“Reducing Functional Domain of Histatin 5 Improves Antifungal Activity and Prevents Proteolytic Degradation” (Microorganisms, 2025)", "origin": "cited, not measured here", "settings": "cited from earlier work", "data": [{"substance": "Histatin 5 [Hst5]", "values": [{"measurement": "Time reported for complete degradation", "setting": "in contact with diluted WSS", "value": 60, "unit": "min"}, {"measurement": "Time enough for complete degradation", "setting": "ref 45 (Thomadaki et al.)", "value": 1.5, "unit": "h"}]}]}
